Measured values taken from US8906832B2, “Quantitative analysis of carbohydrate-protein interactions using glycan microarrays: determination of surface and solution dissociation constants” (Academia Sinica, priority 2008, dated 2014).

Chains of the proteins cited; added tags and fusions are not shown. Residues count along the entry.
UniProt P02870, 31-210 limits assumed: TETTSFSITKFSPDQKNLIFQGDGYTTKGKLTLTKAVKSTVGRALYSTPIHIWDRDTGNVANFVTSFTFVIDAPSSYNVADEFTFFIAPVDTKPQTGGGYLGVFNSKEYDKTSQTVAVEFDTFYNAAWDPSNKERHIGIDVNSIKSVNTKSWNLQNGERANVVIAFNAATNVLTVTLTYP
UniProt P02870, 218-269 limits assumed: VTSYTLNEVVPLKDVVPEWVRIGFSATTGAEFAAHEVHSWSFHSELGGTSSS

Experiments:
Con A [1] = molecular target: T1, Con A (Canavalia ensiformis, UniProt P02866); test: Direct binding assay on glycan microarray, FITC labeled Con A; details: read-out: mean KD,surf; Man1 printed at 100 to 10 μM; FITC labeled Con A 800 nM to 25 nM; s.d.=4.7 nM
lectins or antibodies = lectins or antibodies (Lens culinaris, UniProt P02870); test: Direct binding on glycan microarray, lectin or antibody not named; details: binding protein not given; for Kd: read-out: KD (dissociation constant, surface)
Con A [2] = molecular target: T1, Con A; test: Competitive binding assay on glycan microarray (solution KD / Ki); details: read-out: solution KD for Con A; competition of free oligomannose with the corresponding oligomannose surface

SMILES	Kd (Con A [1]) [µM]	Fmax (maximal fluorescence intensity) (lectins or antibodies)	Kd (lectins or antibodies) [µM]	Kd (Con A [2]) [µM]
NCCCCCO[C@H]1O[C@H](CO)[C@@H](O)[C@H](O)[C@@H]1O	0.083	9458	3.19	250
NCCCCCO[C@H]1O[C@H](CO)[C@@H](O)[C@H](O[C@H]2O[C@H](CO)[C@@H](O)[C@H](O)[C@@H]2O[C@H]2O[C@H](CO)[C@@H](O)[C@H](O)[C@@H]2O[C@H]2O[C@H](CO)[C@@H](O)[C@H](O)[C@@H]2O)[C@@H]1O		36070	0.49	55
